The assay concerns the target Aromatase (Homo sapiens, UniProt P11511). The assay is described as follows: Inhibition of human placental microsomal aromatase using testosterone as substrate assessed as formation of estradiol after 10 mins.

Protein sequences, listed by entry. Tags and fused reporters are not part of them. Lines headed by an entry give the natural chain unless they say otherwise; changes in a name come on top.
UniProt P11511: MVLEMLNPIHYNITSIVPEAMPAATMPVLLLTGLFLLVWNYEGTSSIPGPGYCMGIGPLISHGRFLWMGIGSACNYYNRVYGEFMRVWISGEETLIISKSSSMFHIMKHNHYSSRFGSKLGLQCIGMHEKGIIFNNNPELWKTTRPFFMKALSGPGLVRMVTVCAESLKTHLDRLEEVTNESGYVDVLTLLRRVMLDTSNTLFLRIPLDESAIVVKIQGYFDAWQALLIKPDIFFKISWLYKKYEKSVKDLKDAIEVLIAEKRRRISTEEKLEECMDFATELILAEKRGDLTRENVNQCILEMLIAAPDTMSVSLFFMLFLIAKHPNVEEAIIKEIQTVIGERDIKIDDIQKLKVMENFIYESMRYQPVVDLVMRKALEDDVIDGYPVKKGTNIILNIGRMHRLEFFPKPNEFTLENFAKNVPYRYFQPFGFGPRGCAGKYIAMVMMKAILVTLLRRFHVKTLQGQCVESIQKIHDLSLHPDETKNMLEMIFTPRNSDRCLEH

As usually defined, the IC50 is the concentration at which inhibition is half-maximal. As for `CC/C(=C(\c1ccc(O)cc1)c1ccc(OCCN)cc1)c1ccccc1`, the IC50 was found to be 30 nM.

Values taken from ChEMBL document CHEMBL3817793, “Recent Progress in the Discovery of Next Generation Inhibitors of Aromatase from the Structure-Function Perspective” (J Med Chem, 2016).
